Measurements reported in ChEMBL document CHEMBL3596180, “Evaluation of histone deacetylase inhibitors (HDACi) as therapeutic leads for human African trypanosomiasis (HAT)” (Bioorg Med Chem, 2015).

Target: T1, Histone deacetylase 11 (Homo sapiens, UniProt Q96DB2)
T1 sequence (Q96DB2 whole entry): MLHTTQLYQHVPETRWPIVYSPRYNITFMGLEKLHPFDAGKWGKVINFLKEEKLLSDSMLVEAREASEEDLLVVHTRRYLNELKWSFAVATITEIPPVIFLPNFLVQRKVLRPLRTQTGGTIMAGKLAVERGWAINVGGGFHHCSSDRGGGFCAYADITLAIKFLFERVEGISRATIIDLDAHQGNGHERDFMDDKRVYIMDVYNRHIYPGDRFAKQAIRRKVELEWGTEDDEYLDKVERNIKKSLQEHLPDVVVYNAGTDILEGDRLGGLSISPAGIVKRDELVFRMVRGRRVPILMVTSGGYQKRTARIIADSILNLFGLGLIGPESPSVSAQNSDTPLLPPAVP
Assay: Inhibition of human HDAC11

O=C(CCCCCCC(=O)Nc1ccc([C@H]2O[C@@H](CSc3nc(-c4ccccc4)c(-c4ccccc4)o3)C[C@@H](c3ccc(CO)cc3)O2)cc1)NO [TUBACIN]
Ki: 719 nM
